Data taken from patent publication US10125135B2, “Chemical compounds” (AstraZeneca AB, priority 2016, dated 2018).

Amino acid sequences for entries named in this document (tags omitted). Residues count along the entry.
UniProt P03372, 307-554: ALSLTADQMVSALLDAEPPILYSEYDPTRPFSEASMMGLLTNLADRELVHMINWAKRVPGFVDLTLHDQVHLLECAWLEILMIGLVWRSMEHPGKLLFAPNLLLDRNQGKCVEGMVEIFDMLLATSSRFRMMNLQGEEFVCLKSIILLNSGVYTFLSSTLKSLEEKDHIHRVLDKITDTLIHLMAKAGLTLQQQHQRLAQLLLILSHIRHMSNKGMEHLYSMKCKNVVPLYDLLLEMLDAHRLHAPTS

Target: recombinant human Estrogen Receptor alpha ligand binding domain (ER alpha-LBD (GST)) (Homo sapiens (Human), UniProt P03372)
Assay: ERα binding assay (LanthaScreen TR-FRET competition)
Conditions: read-out: ER binding IC50 value; competitive displacement of Fluormone ES2 tracer, 4 hours room temperature

C[C@@H]1Cc2c(ccc3[nH]ncc23)[C@@](C)(c2ccc(OCCN3CC(CF)C3)cc2)N1CC1(F)CC1 [Example 30, (6R,8R)-7-((1-fluorocyclopropyl)methyl)-6-(4-(2-(3-(fluoromethyl)azetidin-1-yl)ethoxy)phenyl)-6,8-dimethyl-6,7,8,9-tetrahydro-3H-pyrazolo[4,3-f]isoquinoline]
IC50: 0.98 nM

CC(C)CN1[C@H](c2ccc(OCCN3CC(CF)C3)cn2)c2ccc3[nH]ncc3c2C[C@H]1C [Example 40, (6S,8R)-6-(5-(2-(3-(fluoromethyl)azetidin-1-yl)ethoxy)pyridin-2-yl)-7-isobutyl-8-methyl-6,7,8,9-tetrahydro-3H-pyrazolo[4,3-f]isoquinoline]
IC50: 9.4 nM
